Source: patent US4238473A, “Artificial oligosaccharide antigenic determinants” (priority 1975, dated 1980)

Tested on: Rabbit antisera raised to Le^a -BSA antigens
Assay: Immunodiffusion of rabbit antisera raised to Le^a -BSA antigens
Type: binding

## HSA: human serum albumin, carrier protein
  line of precipitation on immunodiffusion: No line of precipitation
